Measured values reported in patent US20250051344A1, “BIFUNCTIONAL SELECTIVE DEGRADERS OF SMARCA2 AND THERAPEUTIC USES THEREOF” (Nurix Therapeutics, Inc., priority 2023, published 2025).

By UniProt entry, the sequences of proteins in these tests, tags left out.
UniProt P51531, whole entry: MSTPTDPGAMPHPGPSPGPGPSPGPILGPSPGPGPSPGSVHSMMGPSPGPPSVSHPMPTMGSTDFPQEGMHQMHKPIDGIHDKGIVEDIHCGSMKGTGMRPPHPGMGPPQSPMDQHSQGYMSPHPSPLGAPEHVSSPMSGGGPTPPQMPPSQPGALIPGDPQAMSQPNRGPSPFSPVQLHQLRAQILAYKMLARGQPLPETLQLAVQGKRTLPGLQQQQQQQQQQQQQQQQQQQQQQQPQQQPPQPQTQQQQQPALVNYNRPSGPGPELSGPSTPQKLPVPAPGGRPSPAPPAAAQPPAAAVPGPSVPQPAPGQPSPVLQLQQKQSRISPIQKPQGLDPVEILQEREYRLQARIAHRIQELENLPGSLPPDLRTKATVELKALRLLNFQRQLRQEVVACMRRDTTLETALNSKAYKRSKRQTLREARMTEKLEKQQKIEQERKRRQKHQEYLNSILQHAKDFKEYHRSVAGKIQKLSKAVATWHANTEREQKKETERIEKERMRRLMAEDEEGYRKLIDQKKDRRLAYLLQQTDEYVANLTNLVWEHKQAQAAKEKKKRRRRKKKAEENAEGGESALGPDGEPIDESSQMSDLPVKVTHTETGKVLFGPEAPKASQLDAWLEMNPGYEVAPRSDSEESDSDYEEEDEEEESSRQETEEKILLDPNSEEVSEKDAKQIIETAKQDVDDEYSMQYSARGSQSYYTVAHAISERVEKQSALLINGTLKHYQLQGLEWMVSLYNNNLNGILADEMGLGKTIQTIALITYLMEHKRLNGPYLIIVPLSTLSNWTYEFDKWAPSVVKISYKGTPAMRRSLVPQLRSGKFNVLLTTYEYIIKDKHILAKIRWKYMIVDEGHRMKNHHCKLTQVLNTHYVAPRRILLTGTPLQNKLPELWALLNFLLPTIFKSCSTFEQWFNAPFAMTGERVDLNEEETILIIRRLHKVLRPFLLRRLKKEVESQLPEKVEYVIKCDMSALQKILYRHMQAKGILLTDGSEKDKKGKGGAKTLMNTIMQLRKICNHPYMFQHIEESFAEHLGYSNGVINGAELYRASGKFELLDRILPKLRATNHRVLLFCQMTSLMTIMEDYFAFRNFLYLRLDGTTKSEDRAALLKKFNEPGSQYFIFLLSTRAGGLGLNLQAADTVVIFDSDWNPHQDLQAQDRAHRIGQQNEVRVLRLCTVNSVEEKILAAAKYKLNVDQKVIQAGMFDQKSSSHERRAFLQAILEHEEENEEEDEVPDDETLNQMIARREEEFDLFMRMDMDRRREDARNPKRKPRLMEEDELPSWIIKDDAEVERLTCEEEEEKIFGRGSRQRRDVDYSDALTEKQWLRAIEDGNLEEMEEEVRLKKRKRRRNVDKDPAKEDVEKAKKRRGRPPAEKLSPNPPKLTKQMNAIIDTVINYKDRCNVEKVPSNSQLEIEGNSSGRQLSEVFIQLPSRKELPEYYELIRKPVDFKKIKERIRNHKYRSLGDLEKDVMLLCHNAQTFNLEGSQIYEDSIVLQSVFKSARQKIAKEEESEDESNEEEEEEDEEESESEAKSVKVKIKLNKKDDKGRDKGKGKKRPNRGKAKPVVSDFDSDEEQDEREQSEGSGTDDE
UniProt P51532, whole entry: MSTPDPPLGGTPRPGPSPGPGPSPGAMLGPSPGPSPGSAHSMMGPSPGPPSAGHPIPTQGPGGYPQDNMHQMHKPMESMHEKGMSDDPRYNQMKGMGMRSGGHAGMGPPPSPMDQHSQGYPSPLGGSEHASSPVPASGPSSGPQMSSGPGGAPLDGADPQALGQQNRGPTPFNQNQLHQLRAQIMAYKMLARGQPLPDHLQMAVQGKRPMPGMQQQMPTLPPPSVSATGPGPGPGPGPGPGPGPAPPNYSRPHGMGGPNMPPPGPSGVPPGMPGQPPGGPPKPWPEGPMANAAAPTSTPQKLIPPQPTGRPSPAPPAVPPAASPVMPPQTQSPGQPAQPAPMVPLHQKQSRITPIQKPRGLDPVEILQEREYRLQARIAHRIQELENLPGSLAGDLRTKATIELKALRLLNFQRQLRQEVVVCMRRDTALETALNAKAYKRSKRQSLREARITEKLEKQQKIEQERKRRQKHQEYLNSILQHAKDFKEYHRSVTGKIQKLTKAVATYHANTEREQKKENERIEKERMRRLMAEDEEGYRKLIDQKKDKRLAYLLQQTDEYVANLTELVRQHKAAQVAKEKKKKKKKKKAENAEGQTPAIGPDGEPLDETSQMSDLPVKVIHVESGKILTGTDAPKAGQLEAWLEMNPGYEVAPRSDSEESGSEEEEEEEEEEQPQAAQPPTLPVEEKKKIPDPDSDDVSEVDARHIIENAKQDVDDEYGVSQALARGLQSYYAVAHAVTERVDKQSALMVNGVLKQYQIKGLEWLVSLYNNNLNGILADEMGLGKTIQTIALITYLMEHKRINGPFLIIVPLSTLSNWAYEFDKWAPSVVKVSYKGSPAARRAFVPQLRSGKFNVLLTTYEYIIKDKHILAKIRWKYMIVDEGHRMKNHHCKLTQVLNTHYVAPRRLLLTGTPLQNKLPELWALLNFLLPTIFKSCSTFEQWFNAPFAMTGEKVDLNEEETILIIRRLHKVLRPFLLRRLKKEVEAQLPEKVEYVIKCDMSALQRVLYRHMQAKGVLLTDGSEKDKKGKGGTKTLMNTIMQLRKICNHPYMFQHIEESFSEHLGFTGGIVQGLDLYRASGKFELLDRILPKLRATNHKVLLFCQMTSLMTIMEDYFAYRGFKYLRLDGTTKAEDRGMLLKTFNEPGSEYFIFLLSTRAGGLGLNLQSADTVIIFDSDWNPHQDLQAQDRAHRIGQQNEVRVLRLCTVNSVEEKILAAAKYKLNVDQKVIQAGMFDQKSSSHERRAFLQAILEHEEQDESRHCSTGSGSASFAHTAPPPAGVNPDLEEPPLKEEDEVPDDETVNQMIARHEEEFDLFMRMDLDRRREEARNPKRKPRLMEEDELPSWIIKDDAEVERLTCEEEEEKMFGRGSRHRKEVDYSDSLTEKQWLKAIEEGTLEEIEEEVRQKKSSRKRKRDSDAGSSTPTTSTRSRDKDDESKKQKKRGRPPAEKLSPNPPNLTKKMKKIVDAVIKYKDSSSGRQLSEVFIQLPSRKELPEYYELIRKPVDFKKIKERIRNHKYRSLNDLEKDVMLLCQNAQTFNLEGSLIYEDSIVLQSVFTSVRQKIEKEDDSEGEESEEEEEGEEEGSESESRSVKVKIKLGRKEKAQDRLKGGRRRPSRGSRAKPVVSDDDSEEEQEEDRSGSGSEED

Tests used:
[1] = biological target: SMARCA2 (Homo sapiens, UniProt P51531); assay: SMARCA2 Cellular Degradation Assay (Western blot analysis on Jess platform); conditions: for Fold Selectivity SMARCA4/2: ratio DC50 SMARCA4 / DC50 SMARCA2
Protocol: SMARCA2 Cellular Degradation Assay
Western Blot Analysis for SMARCA2 Degradation
Frozen cell pellets were thawed on ice and resuspended in RIPA lysis buffer (Millipore, Cat. No. 20-188) supplemented with 0.2% SDS (Fisher Scientific, Cat. No. 24730020), 200 mM β-glycerophosphate (Alfa Aesar, Cat. No. J62121), 500 mM NaF (Rigaku, Cat. No. 1008046), protease inhibitor (1 tablet per 10 mL, Sigma, Cat. No. 11836170001), 250 U/μL benzonase (Millipore, Cat. No. 71206), 200 mM sodium orthovanadate (FivePhoton, Cat. No. ActVO-4), and 100 mM PMSF (Sigma, Cat. No. 10837091001). 50 μL lysis buffer was used to lyse each pellet containing 5×10E5-1×10E6 live cells extracted from tumors. Lysates were centrifuged for 10 mins at 20,817×g and lysate supernatants were saved for further analysis. Protein levels were determined by the BCA Assay performed according to manufacturer's protocol (EMD Millipore, Cat. No. 71285-3). Samples were evaluated by Western blot analysis on the Jess Platform (ProteinSimple). Lysates were diluted with complete lysis buffer (as described above) and 5 μg of total proteins were loaded onto each capillary. Samples were prepared using the ProteinSimple EZ Standard Pack 1 (Cat. No. PS-ST01EZ-8; containing tubes with powdered (5×) Fluorescent Master Mix, DTT, and biotinylated ladder) and run using the ProteinSimple 25-Capillary Cartridge kit (Cat. No. SM-W004; containing 25-capillary cartridge Wash reagent, and 10× Sample Buffer reagent), the ProteinSimple Anti-Rabbit HRP Detection Module for Jess (Cat. No. DM-001; containing Antibody Diluent, anti-rabbit secondary antibody, Luminol-S, Peroxide, and Streptavidin-HRP), and the ProteinSimple Anti-Mouse NIR Detection Module for Jess (Cat. No. DM-009; containing Antibody Diluent, anti-mouse NIR secondary antibody, and Streptavidin-NIR) as the following describes. The DTT was reconstituted with 40 μL water to make a 400 mM solution, 20 μL of the DTT solution plus 20 μL of 10× Sample Buffer were added to reconstitute the 5× Fluorescent Master Mix, and 20 μL of H2O was used to reconstitute the biotinylated ladder. For each sample, lysate (4 μL) was combined with 5× Fluorescent Master Mix (1 μL) and heated at 95° C. for 5 minutes. Samples were cooled and stored on ice. Primary antibody solution was made using anti-SMARCA2 antibody (Abcam, Cat. No. 240648, 1:10) and anti-beta-Actin antibody (Cell Signaling Technology, Cat. No. 3700S, 1:25) in antibody diluent. The 25-capillary cartridges were prepared per standard ProteinSimple protocol with each sample in a column. For the biotinylated ladder in column 1, the following were added: 5 µL of ladder sample in Row A, 10 μL of antibody diluent in Rows B and C, 10 μL of Streptavidin-NIR in Row D, and 15 μL of a 50:50 Luminol-s/Peroxide solution in Row E. For each test sample (columns 2-25), the following were added per column: 5 μL of sample in Row A, 10 μL of antibody diluent in Row B, 10 μL of primary antibody solution in Row C, 10 μL of secondary antibody in Row D, and 15 μL of a 50:50 Luminol-S/Peroxide solution in Row E. 500 μL wash buffer was added to the wash buffer wells in the cartridge and cartridge was spun at 1000×g for 5 minutes prior to loading into the Jess. Samples were run using the Chemiluminescence and Fluorescence immunoassays in the ProteinSimple Compass for SimpleWestern program (version 5.0.0). After running, SMARCA2, actin, and background curves were identified in the Compass software; note that in the Compass software, the electropherograms are also visualized as bands for comparison with standard Western blot outputs. The electropherogram area reading for each sample curve was normalized to that of the corresponding actin curve per column following background (capillary background) subtraction using the following equation: […]
Following normalization, the percentage of SMARCA2 remaining per sample relative to the vehicle control was calculated as follows: […]

[2] = biological target: SMARCA4 (Homo sapiens, UniProt P51532); assay: Cellular degradation assay, SMARCA4 (Table 1)

Row | Compound | Dmax (%) SMARCA2 ([1]; cellular degradation) [%] | Fold Selectivity SMARCA4/2 [1] | Dmax (%) SMARCA4 [2] [%] | DC50 ([1]; read-out: DC50 (nM) SMARCA2, cellular degradation) [nM]
1 | O=C1CCC(c2ccc(N3CCN(C(=O)C4CCN(C(=O)C5(c6ccccc6)CCN(c6cnnc(-c7ccccc7O)c6)CC5)CC4)CC3)cc2)C(=O)N1 (stereo not shown) | 36.19 | 1 | 6.81 | –
2 | O=C1CCC(c2ccc(N3CCN(C(=O)C4CC5(CCN(C(=O)C6(c7ccccc7)CCN(c7cnnc(-c8ccccc8O)c7)CC6)C5)C4)CC3)cc2)C(=O)N1 (stereo not shown) | 24.32 | 1 | 5.73 | –
3 | O=C1CC[C@H](c2ccc(N3CCC(CN4CCC(NC(=O)C5(Oc6ccccc6)CCN(c6cnnc(-c7ccccc7O)c6)CC5)CC45CCC5)CC3)cc2)C(=O)N1 (stereo partly shown) | 79.63 | 1560 | 54.65 | 6.43
